The text below walks through data of published antibiotic growth screens (doi:10.1038/s41589-023-01349-8).

This is one part of the list.

This experiment concerns A. baumannii ATCC 17978. Nature of the experiment: relative growth (fraction of control); higher = less inhibition. Conditions: 50 µM.
`CC(C)(C)OC(=O)N[C@H]1CCC(=O)NC1=O` registered a relative growth of 0.995. With `O=C(C[C@@H]1CC[C@H](NS(=O)(=O)c2ccccc2)[C@@H](CO)O1)NCc1ccncn1` the figure was 1.03; with `Cn1nc(C(=O)O)c2ccccc2c1=O`, 1.03; with `CO[C@H]1CN(C)C(=O)c2ccc(NC(=O)Nc3cccc(Cl)c3)cc2OC[C@@H](C)N(C(=O)Nc2c(C)noc2C)C[C@H]1C`, 0.93. `C[C@]1(C(=O)NCCN2CCOCC2)c2ccccc2C(=O)N(Cc2cc(C(F)(F)F)cc(C(F)(F)F)c2)[C@H]1c1ccc(CO)cc1` showed a relative growth of 0.967. With `COc1ccc(S(=O)(=O)N2C[C@H](O)COC[C@H]3O[C@H](CC(=O)NCCCN4CCOCC4)CC[C@@H]32)cc1` the figure was 1.05.

As for `CC1(C)CO[C@@H](CC(=O)O)CN1`, the relative growth was determined as 0.85. For the compound `COc1cccc(S(=O)(=O)N2C[C@H](O)COC[C@H]3O[C@H](CC(=O)NCCCN4CCOCC4)CC[C@@H]32)c1`, the relative growth is 0.951.

On to `Cc1cc(Cl)cc2sc(N(Cc3ccccn3)C(=O)c3ccc(S(=O)(=O)N4CCCC4)cc3)nc12`, for which the relative growth amounted to 1.08. In turn, `CC(C)Cn1c(=O)[nH]c2c1c(=O)n(C)c(=O)n2C` had a relative growth of 0.892. With `O=C(C[C@H]1C=C[C@H](NC(=O)C2CC2)[C@@H](CO)O1)NCCCN1CCOCC1`, the relative growth came out at 0.971. Under `Cc1ccc2c(Br)cc(Br)c(OC(=O)c3ccccc3)c2n1` stands 1.42; under `Cc1cccc(C(=O)O)c1O`, 1.06; under `CNS(=O)(=O)c1ccc2[nH]c(=O)[nH]c2c1`, 0.896. Under `CC(C)n1c(/C=C/[C@@H](O)C[C@@H](O)CC(=O)[O-])c(-c2ccc(F)cc2)c2ccccc21.[Na+]` stands 1.05; under `CCCCCCCCCc1ccc(OCCOCCOCCOCCOCCOCCOCCOCCOCCO)cc1`, 0.895. With `CC(C)c1ccc2oc3nc(N)c(C(=O)O)cc3c(=O)c2c1` the figure was 1.03.

In turn, `Cc1cccc(=O)n1CCCCN` returned a relative growth of 1.01. `Cc1ccc(S(=O)(=O)N[C@@H]2CC[C@@H](CCNC(=O)CN3CCOCC3)O[C@H]2CO)cc1`: the relative growth was found to be 1.16. As for `COc1ccc(N2CCn3c2nnc(C(=O)NCCO)c3=O)cc1`, the relative growth was determined as 0.94. Consider `COC(=O)Nc1nc2cc(C(=O)c3ccccc3)ccc2[nH]1`, for which the relative growth is 0.999. Compound `C[C@H](CO)N1C[C@H](C)[C@@H](CN(C)C(=O)c2ccc(N3CCN(C)CC3)cc2)OCc2cnnn2CCCC1=O` gave a relative growth of 0.981.

With `COCC(=O)Nc1ccc2c(c1)C(=O)N(C)[C@@H]1CC[C@@H](CC(=O)NCc3ccc(OC)cc3)O[C@@H]1CO2`, the relative growth was 0.967. Compound `COc1cccc(C#Cc2ccc3c(c2)O[C@@H](CN(C)C(=O)CN2CCOCC2)[C@H](C)CN([C@H](C)CO)S3(=O)=O)c1` displayed a relative growth of 0.795.

On to `Cc1cnc2c(c1N1CCOCC1)c(=O)n(C)c(=O)n2C`, for which the relative growth stood at 1.02.
